Test [1] concerns the target T1, Relaxin-3 receptor 1 (Homo sapiens, UniProt Q9NSD7).
T1 sequence (Q9NSD7 whole entry): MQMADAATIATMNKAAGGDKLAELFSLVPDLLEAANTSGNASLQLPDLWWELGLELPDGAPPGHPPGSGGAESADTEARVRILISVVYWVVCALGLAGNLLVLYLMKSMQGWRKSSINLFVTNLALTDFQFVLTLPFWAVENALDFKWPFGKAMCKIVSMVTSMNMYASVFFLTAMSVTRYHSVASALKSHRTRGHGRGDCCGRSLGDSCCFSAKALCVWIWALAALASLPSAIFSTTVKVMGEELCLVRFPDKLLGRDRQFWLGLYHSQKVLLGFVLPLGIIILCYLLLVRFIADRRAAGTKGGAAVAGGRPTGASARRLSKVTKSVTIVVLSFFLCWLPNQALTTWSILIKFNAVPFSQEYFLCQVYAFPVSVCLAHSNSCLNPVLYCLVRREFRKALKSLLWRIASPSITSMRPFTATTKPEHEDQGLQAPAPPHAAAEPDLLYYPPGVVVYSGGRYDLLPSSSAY

The target in test [2] is T1, Relaxin-3 receptor 1. The test is described as follows: biochemical.

Regarding `COc1cc(C)c2[nH]cc(/C=N/NC(=N)NCCc3ccc(Cl)c(Cl)c3)c2c1`, the EC50 (in general, the midpoint of the concentration-response curve) in test [1] came to 306 nM. Further, the affinity in test [2] corresponds to a Ki of 2510 nM.

(Values after ChEMBL document CHEMBL5032539, “Indole-Containing Amidinohydrazones as Nonpeptide, Dual RXFP3/4 Agonists: Synthesis, Structure-Activity Relationship, and Molecular Modeling Studies” (J Med Chem, 2021).)
